# AlphaSeq binding of Ab-14 light chain variants to a spike HR2 peptide

Data: MIT Lincoln Laboratory AlphaSeq set, Li et al. 2023, doi:10.1038/s41467-023-39022-2, as distributed in FLAb.

Antigen: PDVDLGDISGINAS, a 14-residue peptide of the SARS-CoV-2 spike HR2 region.

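Phage display of a naive human antibody library on the peptide gave the parent. Designed CDR sequences, proposed from the first random library and measured here. Several design methods are mixed in this list. The scFvs were displayed on barcoded MATa yeast, the peptide on MATalpha yeast. Binding brings cells together so that they mate, and sequencing counts the barcode pairs among the diploids. Read counts were normalised to the haploid input and turned into Kd by a linear fit to BCL2-family pairs of known affinity, for each replicate. Each pool was mated in six replicate cultures.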

Each scFv is VH, a 15-residue (Gly4Ser)3 linker, VL, as in the parent Ab-14, and differs from it in the CDRs of the light chain only.
VH: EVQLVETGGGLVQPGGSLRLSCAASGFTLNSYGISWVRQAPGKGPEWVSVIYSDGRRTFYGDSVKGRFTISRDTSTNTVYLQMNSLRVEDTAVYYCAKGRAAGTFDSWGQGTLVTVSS
VL: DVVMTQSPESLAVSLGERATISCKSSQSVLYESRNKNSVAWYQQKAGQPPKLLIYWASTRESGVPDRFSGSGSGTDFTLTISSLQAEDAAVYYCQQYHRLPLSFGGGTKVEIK

Variants are written as CDR1, CDR2 and CDR3 of the light chain (limits as in the source). Parent: KSSQSVLYESRNKNSVA, WASTRES, QQYHRLPLS. Values are apparent Kd, the geometric mean of the replicates that gave a signal; lower means stronger binding. Where no diploid with the target was found in any replicate, the entry reads "nd": below detection, most likely a poor binder, though not proof of it.

CDR-L1	CDR-L2	CDR-L3	Kd (apparent)	replicates with signal	control signals
MISQLMNMGQFAINSVA	QASLRNE	QQYDRLPLQ	17 nM	6/6	1/18
KIEQSLFPYGPSWHSIA	NANTLLA	QQYYMLPLM	27 nM	6/6	0/18
HMSAVTMMGMRQRNSVA	QMTMREN	QQYDRLPLM	4.3 nM	6/6	0/18
KISQMYRYESQNSSSIA	EVSTRLN	QSYHRLPLS	150 nM	1/6	1/18
SFTIEGLQQQEQYKSVA	GEQSKVD	QQYGRLPLS	15 nM	6/6	0/18
HMSMLTLQGLRHRNAVA	QMTTREN	QQYDRLPLA	73 nM	6/6	0/18
VFMGQWDGVTTTNSAVA	NVDERML	QQYNRLPLM	4.5 nM	6/6	0/18
KYSMQELQEQRNKNSVA	NASTREE	QQYHRLPLS	43 nM	6/6	0/18
KLSQSGLYESRNKWSVA	NASTRES	QQYHRLPLS	880 pM	6/6	1/18
KLQNFSQEDNKMWNNIA	DTTMVHT	QQYMTLPLM	3.9 nM	6/6	0/18
KSSQSVLGESRNKNSVA	SASTRES	QQYHRLPLS	150 nM	6/6	1/18
KLVNSTLYESRQKNSVA	WASTRLS	QQYHRLPLS	nd	0/6	1/18
RMNKFMSEIGGARNSIA	GADHLAQ	QHYHRLPLS	11 nM	6/6	1/18
HMSALTLMGSRNRNSVA	QMTTREN	QQYDRLPLI	7.5 nM	6/6	0/18
KLPQSHLYESRNKNSVA	HASTRLS	QQYHRLPLS	9.3 nM	6/6	1/18
KLSGATRLESQKKASVA	ENSTRGE	QQYFRLPLS	8.2 nM	6/6	1/18
KLSQTSGMEHVSRNSVA	ELVTRMS	QQYNRLPLS	6.9 nM	6/6	1/18
KIGMTLNQLMHQKNNVA	DLVQREN	QQYHRLPLS	40 nM	6/6	1/18
KLQGSELYESRNKNSVA	EASTRES	QQYHRLPLS	1.7 nM	6/6	0/18
NLMGQGDHSIKHANSIA	NVDLVDM	QQYAHLPLS	34 nM	6/6	0/18
YFSQSVLYESRNKNSVA	RASTRES	QQYFRLPLS	5.2 nM	6/6	0/18
KLSQSELYESRMKNSVA	NASTRES	QQYHRLPLS	920 pM	6/6	2/18
MISDMGLHDTRMQNSVA	NNSTREA	QQYHRLPLS	47 nM	6/6	1/18
KYSMQELQEQRNKNSVA	NASTRES	QQYHRLPLS	1.3 nM	6/6	1/18
KSSQSVLYESRNKNSVA	WASTREN	QQYHRLPLS	82 nM	5/6	0/18
TISQLHNMGTFAINSVA	QASIRNA	QQYDRLPLQ	6.8 nM	6/6	1/18
KVSGQQLYSSRNKNQVA	DASTRES	QQYHRLPLS	2.2 nM	6/6	0/18
MMLTGDPLQLAAQNAVA	NANLAMT	QHYFRLPLV	nd	0/6	0/18
KSSQSVLYESDNKNSVA	WASTRES	QQYNRLPLS	11 nM	6/6	0/18
KVSQSQLYESRNKNAVA	NASQRES	QQYHRLPLS	1.2 nM	6/6	0/18
KQSEEKLYESRNKNSVA	DASTRES	QQYHRLPLS	920 pM	6/6	1/18
KSDQGQLYESRNKNSVA	GASTRES	QQYHRLPLS	700 pM	6/6	0/18
HMSALTLGGMRMRNSVA	QMTTREN	QQYDRLPLA	4.5 nM	6/6	1/18
KSSQSVLYESRNKNSLA	WASTRES	QQYHRLPLS	6.5 nM	6/6	0/18
KLSQSDLYESRVKNSVA	EASTRES	QQYHRLPLS	2.9 nM	6/6	1/18
TLSQMSGVEAVKHNSVA	ENSTREK	QQYDRLPLA	7.8 nM	6/6	0/18
KLSQSMLYESRNKNSVA	DASQRES	QQYHRLPLS	720 pM	6/6	0/18
KFNISKEGVTSEGKSIA	GSQTIDE	QQYDRLPLA	78 nM	6/6	1/18
KSQQSVLYESRNSNSVA	NGSTREL	QDYHRLPLS	1.2 nM	6/6	1/18
KISQMVTYESTWHNAIA	QTSEREQ	QQYHRLPLS	17 nM	6/6	0/18
KSSMSVLYESNNKNSVA	HASTRED	QQYHRLPLS	860 pM	6/6	1/18
KIGGVTNGISRSKNSVA	EQSTRED	QQYDRLPLT	1.9 nM	6/6	0/18
KLTSVTGTEKVRGNNVA	EMETREQ	QQYNRLPLS	4.4 nM	6/6	0/18
KLSQSVLYESRVKNSVA	DASTRES	QQYHRLPLS	310 pM	6/6	2/18
KFSQLWLYESRNKNSVA	NASTRES	QQYHRLPLS	1.6 nM	6/6	1/18
HLSGLMTWESKAKNSVA	QSNTRAE	QQYHRLPLS	9.1 nM	6/6	0/18
MFSQLTYTGSRTRNAVA	QASTREN	QQYHHLPLM	1.5 nM	5/6	0/18
KLRWDDMSHFNTRSNVA	DMTMRVH	QQYNRLPLD	2.7 nM	6/6	1/18

The opening 3 entries, copied out:

{"CDR-L1": "MISQLMNMGQFAINSVA", "CDR-L2": "QASLRNE", "CDR-L3": "QQYDRLPLQ", "Kd (apparent)": "17 nM", "replicates with signal": "6/6", "control signals": "1/18"}
{"CDR-L1": "KIEQSLFPYGPSWHSIA", "CDR-L2": "NANTLLA", "CDR-L3": "QQYYMLPLM", "Kd (apparent)": "27 nM", "replicates with signal": "6/6", "control signals": "0/18"}
{"CDR-L1": "HMSAVTMMGMRQRNSVA", "CDR-L2": "QMTMREN", "CDR-L3": "QQYDRLPLM", "Kd (apparent)": "4.3 nM", "replicates with signal": "6/6", "control signals": "0/18"}

The range of this assay differs from that of the first round, and the authors advise against merging the two. Background: pairings of all light chain designs with three empty control strains gave a value in 4% of cases (median 430 nM, 5th percentile 38 nM). Values in that range, when seen in few replicates, are hard to tell from nonspecific mating. The control count says in how many pairings with the empty strains this scFv gave a signal. The authors averaged sequences with at least three values out of six and counted those with two or fewer as poor binders.